Ab-14 light chain CDR variants: yeast mating affinities

Binding partner: SARS-CoV-2 spike HR2 peptide, sequence PDVDLGDISGINAS.

Ab-14 is the parent antibody, in scFv form: VH, then a (GGGGS)3 linker, then VL. The heavy chain is unchanged in all variants.
VH: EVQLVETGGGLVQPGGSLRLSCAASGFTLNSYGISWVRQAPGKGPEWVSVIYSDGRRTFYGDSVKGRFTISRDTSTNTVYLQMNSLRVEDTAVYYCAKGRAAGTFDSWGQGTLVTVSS
VL: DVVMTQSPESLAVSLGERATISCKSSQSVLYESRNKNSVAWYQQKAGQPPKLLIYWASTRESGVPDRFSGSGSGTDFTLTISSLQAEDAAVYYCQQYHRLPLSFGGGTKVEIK

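Library AAYL50 holds single substitutions and randomly drawn double and triple substitutions in the CDRs. The assay is AlphaSeq: two haploid yeast populations carry antibody and antigen on their surface. Mating (16 h, 30 °C) was followed by selection of diploids and sequencing of their barcodes. Each replicate has its own calibration line, from reference interactions of the BCL2 family. There are three technical replicates.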

Positions count from residue 1 of the parent VL; L30M puts M in place of L. The read-out is the apparent dissociation constant on a log10 scale (nM): the lower, the stronger. A mean of the replicates is given; it leaves out those without a signal. A pair that was not seen in that replicate is written "nd"; this usually means weak binding, but a binder can also be missed. In this assay the parent's reference entry averaged 0.65; its copy inside this library read 1.68.

changes,"log10 Kd, replicates","log10 Kd (nM), mean",signal with controls
L30M+E61W+P101E,2.72 2.08 2.89,2.57,6 of 9 (4.60)
S28D+V29F+P101M,nd nd nd,nd,1 of 9 (3.31)
A57I+E61I,nd nd 2.74,2.74,1 of 9 (2.15)
A40F+L102Q,nd nd nd,nd,2 of 9 (4.36)
S62Y+Q96S+P101A,3.35 4.77 5.91,4.67,2 of 9 (3.48)
S26W+R60I+P101V,nd nd nd,nd,2 of 9 (4.35)
V29C+S38H+P101N,1.81 2.49 4.12,2.81,2 of 9 (3.49)
S26F+E61R+L102D,nd nd nd,nd,1 of 9 (4.29)
V39Q+S103G,nd nd nd,nd,2 of 9 (3.75)
S33T+V39D+S62G,5.45 nd nd,5.45,2 of 9 (4.02)
Y31M+N35Y+A40W,nd nd nd,nd,0 of 9
S26F+A40D+A57T,nd 2.52 nd,2.52,0 of 9
K24N+S28V+N37H,4.19 4.73 3.76,4.23,2 of 9 (4.02)
A57V+H98E+L102A,nd nd nd,nd,1 of 9 (5.21)
S38A+W56I+L102G,nd nd nd,nd,5 of 9 (4.13)
S38L+S58Y+S62L,nd nd nd,nd,2 of 9 (3.86)
Q27F+S28N+T59W,nd nd nd,nd,2 of 9 (3.95)
E32H+R34P+S103F,3.03 3.04 2.86,2.97,3 of 9 (3.70)
E32Y+A40E+A57Y,nd nd 5.42,5.42,1 of 9 (3.47)
S58A+T59K+E61F,nd nd 5.46,5.46,2 of 9 (3.32)
E32N+R34E+T59F,0.71 0.85 0.82,0.79,2 of 9 (4.19)
K24V+W56A+S58I,1.41 1.38 1.63,1.47,2 of 9 (4.15)
T59N+Y97Q+L102P,2.23 2.11 2.30,2.22,3 of 9 (4.49)
V29Y+S58H+P101L,nd nd nd,nd,0 of 9
R34Y+Y97C+L102I,nd nd nd,nd,1 of 9 (2.52)
A57H+T59V,3.65 3.16 4.11,3.64,3 of 9 (4.71)
V29R+V39Y+S58N,2.17 2.07 2.05,2.10,5 of 9 (4.19)
S28V+E32W,nd nd nd,nd,1 of 9 (3.71)
K36D+E61D,0.74 1.02 1.28,1.01,5 of 9 (4.06)
E32Q+W56P+P101T,nd nd nd,nd,0 of 9
K24G+N35P+S38V,3.74 nd nd,3.74,0 of 9

The closing 2 entries, repeated:

{"changes": "E32Q+W56P+P101T", "log10 Kd, replicates": "nd nd nd", "log10 Kd (nM), mean": "nd", "signal with controls": "0 of 9"}
{"changes": "K24G+N35P+S38V", "log10 Kd, replicates": "3.74 nd nd", "log10 Kd (nM), mean": "3.74", "signal with controls": "0 of 9"}

Three control strains display no target. For library AAYL50, 18% of the pairings with them gave a signal, with a median of 4.19 and one signal in twenty below 2.99, so weak values seen in few replicates may be background. Also given: how often the same scFv was detected with the empty control strains, with their mean in brackets.

Source: Engelhart et al. 2022 (doi:10.1038/s41597-022-01779-4), MIT Lincoln Laboratory and A-Alpha Bio; data file from the FLAb repository.